The values below are quoted from earlier work in patent US20100135983A1, “Anti-inflammatory compositions and methods” (Searete LLC, a limited liability corporation of the State …, priority 2008, published 2010).

Chains of the proteins cited; added tags and fusions are not shown. Residues count along the entry.
UniProt P09619, 33-1106: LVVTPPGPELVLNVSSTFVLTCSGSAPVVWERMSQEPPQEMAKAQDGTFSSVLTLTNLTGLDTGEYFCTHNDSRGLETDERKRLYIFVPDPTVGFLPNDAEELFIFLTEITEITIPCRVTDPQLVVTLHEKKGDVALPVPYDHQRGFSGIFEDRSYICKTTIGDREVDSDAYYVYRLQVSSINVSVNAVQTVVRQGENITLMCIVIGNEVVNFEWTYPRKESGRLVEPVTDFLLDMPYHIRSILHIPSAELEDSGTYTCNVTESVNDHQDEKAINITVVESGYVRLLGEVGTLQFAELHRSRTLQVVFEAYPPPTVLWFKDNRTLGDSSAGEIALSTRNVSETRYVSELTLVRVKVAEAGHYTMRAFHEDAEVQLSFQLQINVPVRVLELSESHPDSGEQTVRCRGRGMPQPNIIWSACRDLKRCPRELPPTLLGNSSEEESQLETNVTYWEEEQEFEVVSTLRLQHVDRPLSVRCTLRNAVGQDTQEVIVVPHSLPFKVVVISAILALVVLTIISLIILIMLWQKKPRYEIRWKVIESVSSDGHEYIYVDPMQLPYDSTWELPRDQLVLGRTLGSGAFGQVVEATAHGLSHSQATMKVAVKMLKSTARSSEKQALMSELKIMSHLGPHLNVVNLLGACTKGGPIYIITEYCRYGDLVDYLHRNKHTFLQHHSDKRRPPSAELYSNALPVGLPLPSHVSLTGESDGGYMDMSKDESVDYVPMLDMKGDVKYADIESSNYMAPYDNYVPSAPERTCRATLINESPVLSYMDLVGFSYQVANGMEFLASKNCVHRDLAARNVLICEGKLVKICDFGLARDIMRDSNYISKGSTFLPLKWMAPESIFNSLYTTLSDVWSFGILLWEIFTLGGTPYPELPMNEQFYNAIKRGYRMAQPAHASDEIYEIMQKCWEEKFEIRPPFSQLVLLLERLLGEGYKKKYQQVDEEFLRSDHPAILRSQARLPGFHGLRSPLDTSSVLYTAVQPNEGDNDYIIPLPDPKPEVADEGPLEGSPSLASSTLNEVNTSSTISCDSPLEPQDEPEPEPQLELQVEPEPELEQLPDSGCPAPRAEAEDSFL
UniProt P10721, 26-976: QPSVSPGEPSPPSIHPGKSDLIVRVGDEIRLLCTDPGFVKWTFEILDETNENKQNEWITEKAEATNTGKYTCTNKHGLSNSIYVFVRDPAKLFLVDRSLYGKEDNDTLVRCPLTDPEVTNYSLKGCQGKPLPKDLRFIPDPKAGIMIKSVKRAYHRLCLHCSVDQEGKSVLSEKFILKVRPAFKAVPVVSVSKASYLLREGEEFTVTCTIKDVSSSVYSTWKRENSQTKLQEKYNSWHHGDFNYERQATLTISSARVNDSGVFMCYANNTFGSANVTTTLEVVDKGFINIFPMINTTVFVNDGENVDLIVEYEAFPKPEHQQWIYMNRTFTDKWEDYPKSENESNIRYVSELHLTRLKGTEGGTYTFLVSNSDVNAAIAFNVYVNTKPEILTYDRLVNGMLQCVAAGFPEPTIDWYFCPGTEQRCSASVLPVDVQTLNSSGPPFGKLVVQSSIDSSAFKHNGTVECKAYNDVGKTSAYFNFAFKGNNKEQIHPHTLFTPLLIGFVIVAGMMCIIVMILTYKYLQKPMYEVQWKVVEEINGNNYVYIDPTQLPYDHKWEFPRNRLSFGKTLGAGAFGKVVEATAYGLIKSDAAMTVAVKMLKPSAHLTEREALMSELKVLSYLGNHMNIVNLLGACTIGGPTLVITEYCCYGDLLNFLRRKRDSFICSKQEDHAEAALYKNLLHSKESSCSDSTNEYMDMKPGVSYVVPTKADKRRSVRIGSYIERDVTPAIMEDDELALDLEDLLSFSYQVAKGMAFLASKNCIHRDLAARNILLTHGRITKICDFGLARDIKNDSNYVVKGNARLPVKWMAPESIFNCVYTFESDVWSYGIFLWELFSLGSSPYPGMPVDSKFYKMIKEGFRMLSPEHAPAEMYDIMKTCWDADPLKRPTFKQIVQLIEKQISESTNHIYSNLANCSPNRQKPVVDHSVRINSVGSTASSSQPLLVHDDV

One data set deals with PDGFRβ (Homo sapiens, UniProt P09619). The conditions noted are these: at nanomolar concentrations.
The target in the next data set is c-Kit (Homo sapiens, UniProt P10721). Conditions: at nanomolar concentrations.

On to `Cc1nc(Nc2ncc(C(=O)Nc3c(C)cccc3Cl)s2)cc(N2CCN(CCO)CC2)n1.O` [dasatinib, N-(2-chloro-6-methylphenyl)-2-[[6-[4-(2-hydroxyethyl)-1-piperazinyl]-2-methyl-4-pyrimidinyl]amino]-5-thiazolecarboxamide, monohydrate], for which the “inhibition of PDGFRβ” value at PDGFRβ was “inhibits”. Besides, on c-Kit, the “inhibition of c-Kit” value is recorded as “inhibits”.
